Measured values reported in patent US20180214395A1 (priority 2017, published 2018).
Counter-ions that a name gives are not always drawn. Like-named read-outs stand apart in the source and are kept apart here.

Chains of the proteins cited; added tags and fusions are not shown. Residues count along the entry.
UniProt Q63380, 1-617: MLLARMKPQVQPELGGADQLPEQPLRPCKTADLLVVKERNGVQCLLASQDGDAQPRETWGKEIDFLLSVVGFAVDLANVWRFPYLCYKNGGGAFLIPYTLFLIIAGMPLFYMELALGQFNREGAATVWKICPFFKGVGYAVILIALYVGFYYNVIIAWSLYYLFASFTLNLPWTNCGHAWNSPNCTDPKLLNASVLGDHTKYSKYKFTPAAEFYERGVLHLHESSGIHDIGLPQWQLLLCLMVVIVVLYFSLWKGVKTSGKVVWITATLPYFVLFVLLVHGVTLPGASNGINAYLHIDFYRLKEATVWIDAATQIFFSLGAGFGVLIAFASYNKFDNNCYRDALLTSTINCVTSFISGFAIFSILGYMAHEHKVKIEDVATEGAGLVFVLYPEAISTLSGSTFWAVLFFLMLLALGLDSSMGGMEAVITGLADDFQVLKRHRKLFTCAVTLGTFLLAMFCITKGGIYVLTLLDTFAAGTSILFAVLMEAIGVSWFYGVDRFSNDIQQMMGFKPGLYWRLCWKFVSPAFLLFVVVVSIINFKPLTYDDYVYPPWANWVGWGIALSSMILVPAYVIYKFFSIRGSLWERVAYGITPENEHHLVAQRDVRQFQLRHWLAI
UniProt Q13224, 27-1484: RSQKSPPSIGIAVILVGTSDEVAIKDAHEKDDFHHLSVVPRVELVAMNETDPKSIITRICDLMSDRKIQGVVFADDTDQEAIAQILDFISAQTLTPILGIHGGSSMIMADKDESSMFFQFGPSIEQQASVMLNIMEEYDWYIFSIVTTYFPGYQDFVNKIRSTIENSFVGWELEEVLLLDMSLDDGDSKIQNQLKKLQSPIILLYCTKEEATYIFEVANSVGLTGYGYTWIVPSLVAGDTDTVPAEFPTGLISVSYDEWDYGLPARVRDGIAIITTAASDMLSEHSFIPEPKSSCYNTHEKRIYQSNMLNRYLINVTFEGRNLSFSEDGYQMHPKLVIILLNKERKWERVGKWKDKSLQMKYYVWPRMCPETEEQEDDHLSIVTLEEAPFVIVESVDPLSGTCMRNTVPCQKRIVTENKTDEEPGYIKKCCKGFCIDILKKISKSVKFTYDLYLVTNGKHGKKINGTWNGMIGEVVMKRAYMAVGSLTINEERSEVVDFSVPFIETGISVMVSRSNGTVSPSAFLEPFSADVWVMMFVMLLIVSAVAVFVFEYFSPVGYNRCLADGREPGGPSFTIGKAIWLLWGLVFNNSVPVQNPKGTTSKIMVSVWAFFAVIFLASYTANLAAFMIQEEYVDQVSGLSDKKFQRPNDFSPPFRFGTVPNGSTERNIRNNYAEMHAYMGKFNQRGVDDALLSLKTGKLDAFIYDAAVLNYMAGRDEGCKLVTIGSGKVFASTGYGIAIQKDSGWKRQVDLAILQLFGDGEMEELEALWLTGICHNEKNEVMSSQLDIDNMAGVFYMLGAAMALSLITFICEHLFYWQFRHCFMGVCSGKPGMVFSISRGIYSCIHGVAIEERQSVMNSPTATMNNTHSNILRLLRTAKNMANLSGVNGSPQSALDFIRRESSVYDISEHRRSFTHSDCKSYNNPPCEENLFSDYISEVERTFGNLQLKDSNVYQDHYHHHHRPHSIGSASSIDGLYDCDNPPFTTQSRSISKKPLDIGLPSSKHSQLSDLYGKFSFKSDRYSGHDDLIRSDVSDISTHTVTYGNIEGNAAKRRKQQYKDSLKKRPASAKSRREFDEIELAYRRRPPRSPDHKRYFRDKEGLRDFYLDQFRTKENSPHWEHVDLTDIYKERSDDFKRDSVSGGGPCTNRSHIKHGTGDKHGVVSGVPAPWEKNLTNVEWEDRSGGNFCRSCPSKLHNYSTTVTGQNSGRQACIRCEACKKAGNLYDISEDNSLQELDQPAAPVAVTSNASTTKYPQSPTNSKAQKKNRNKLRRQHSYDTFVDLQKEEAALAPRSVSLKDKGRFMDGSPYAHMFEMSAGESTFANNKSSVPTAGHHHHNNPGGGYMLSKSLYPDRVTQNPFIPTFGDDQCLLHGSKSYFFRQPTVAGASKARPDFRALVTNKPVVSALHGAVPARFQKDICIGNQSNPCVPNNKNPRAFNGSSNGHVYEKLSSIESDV
UniProt Q12879, 23-1464: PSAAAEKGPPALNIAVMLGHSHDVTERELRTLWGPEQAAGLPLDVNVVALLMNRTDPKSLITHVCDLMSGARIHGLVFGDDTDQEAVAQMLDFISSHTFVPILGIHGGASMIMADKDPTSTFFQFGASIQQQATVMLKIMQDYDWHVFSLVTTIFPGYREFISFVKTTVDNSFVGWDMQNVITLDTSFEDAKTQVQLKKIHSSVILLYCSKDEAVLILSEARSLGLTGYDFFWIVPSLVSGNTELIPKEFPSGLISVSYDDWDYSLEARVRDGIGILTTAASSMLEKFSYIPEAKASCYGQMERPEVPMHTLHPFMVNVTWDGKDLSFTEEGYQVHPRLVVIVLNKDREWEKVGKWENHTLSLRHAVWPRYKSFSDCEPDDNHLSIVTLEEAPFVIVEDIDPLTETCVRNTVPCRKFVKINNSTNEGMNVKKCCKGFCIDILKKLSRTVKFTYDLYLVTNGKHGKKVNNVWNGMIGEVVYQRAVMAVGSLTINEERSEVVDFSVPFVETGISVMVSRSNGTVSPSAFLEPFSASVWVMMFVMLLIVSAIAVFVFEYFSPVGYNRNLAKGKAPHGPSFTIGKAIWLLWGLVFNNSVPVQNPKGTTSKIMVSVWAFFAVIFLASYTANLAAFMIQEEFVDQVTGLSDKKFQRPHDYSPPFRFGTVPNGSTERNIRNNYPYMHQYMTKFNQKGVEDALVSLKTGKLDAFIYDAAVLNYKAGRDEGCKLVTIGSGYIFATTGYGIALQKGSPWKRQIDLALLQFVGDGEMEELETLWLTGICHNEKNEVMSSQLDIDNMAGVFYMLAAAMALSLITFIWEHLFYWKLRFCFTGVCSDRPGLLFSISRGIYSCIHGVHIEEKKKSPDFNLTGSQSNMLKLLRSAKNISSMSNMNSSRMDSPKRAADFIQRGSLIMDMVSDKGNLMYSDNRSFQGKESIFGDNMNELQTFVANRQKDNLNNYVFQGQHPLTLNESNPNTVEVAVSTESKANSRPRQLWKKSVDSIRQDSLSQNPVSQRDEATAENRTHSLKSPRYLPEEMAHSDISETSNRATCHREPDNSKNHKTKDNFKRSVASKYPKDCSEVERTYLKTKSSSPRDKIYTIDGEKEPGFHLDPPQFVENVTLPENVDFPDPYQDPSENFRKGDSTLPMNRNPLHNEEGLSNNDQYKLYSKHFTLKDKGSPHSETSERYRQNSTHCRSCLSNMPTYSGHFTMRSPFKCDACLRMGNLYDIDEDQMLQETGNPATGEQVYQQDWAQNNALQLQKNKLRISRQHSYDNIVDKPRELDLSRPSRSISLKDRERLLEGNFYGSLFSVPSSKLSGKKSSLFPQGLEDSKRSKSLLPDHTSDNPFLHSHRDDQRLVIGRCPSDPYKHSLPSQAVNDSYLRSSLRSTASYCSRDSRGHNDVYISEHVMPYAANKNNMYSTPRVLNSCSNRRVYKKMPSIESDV

Experiments:
[1] = target: T1, norepinephrine transporter (NET) (Rattus norvegicus, UniProt Q63380); test: Norepinephrine uptake assay; format: biochemical; settings: Study 1, test concentration 1.0E−05 M; for % Inhibition of Control Values, 1st: 1st replicate; for % Inhibition of Control Values, 2nd: 2nd replicate; for % Inhibition of Control Values, Mean: mean of replicates
T1 construct: tissue Eurofins Cerep; host or cells: rat hypothalamus synaptosomes (own knowledge of the vendor's assay)

[2] = target: T2, human cloned NMDA NR1/NR2B receptors expressed in HEK293 cells (Homo sapiens, UniProt Q05586+Q13224); test: cell-based; settings: NR1/NR2B EC/IC50 (IC50)
[3] = target: T2, human cloned NMDA NR1/NR2B receptors expressed in HEK293 cells; settings: for IC50: read-out: NR1/NR2B EC/IC50 (IC50)
[4] = target: T3, human cloned NMDA NR1/NR2A receptors expressed in HEK293 cells (Homo sapiens, UniProt Q05586+Q12879); settings: for IC50: read-out: NR1/NR2A EC/IC50 (IC50)
[5] = target: T3, human cloned NMDA NR1/NR2A receptors expressed in HEK293 cells; test: cell-based; settings: NR1/NR2A EC/IC50 (IC50)
[6] = peak current amplitude, 10 μM glutamate, 50 μM glycine
[7] = steady state current amplitude, 2 seconds after application

Row | Molecule | % Inhibition of Control Values, 1st [1] [%] | % Inhibition of Control Values, 2nd [1] [%] | % Inhibition of Control Values, Mean [1] [%] | IC50 [2, 6] [µM] | IC50 [2, 7] [µM] | NR1/NR2B HillSlope ([3]; peak current amplitude) | NR1/NR2B HillSlope ([3]; steady state current amplitude) | NR1/NR2A HillSlope ([4]; peak current amplitude) | NR1/NR2A HillSlope ([4]; steady state current amplitude) | IC50 [5, 6] [µM] | IC50 [5, 7] [µM] | IC50 [3, 6] [µM] | IC50 [3, 7] [µM] | IC50 [4, 6] [µM] | IC50 [4, 7] [µM]
1 | CCC(=O)C(C[C@@H](C)N(C)C)(c1ccccc1)c1ccccc1 (racemic) [l-methadone, reference compound] | 96.5 | 84.1 | 90.3 | – | – | – | – | – | – | – | – | – | – | – | –
2 | [2H]C([2H])([2H])CC(=O)C(C[C@H](C)N(C([2H])([2H])[2H])C([2H])([2H])[2H])(c1ccccc1)c1ccccc1 | 69.7 | 53.0 | 61.4 | – | – | – | – | – | – | – | – | – | – | – | –
3 | CNC1(c2ccccc2Cl)CCCCC1=O (centres unmarked) [Ketamine HCL] | – | – | – | 2.69 | 2.38 | −1.01 | −0.97 | 1.55 | −1.62 | 8.07 | 6.19 | – | – | – | –
4 | c1ccc(C2(N3CCCCC3)CCCCC2)cc1 [Phencyclidine HCL] | – | – | – | 1.41 | 1.14 | −0.58 | −0.56 | 0.60 | −0.73 | 4.57 | 2.69 | – | – | – | –
5 | CN[C@]1(c2ccccc2Cl)CCCCC1=O.Cl [S-(+)-Ketamine HCL] | – | – | – | – | – | −0.85 | −0.99 | 0.86 | −0.85 | – | – | 3.28 | 2.88 | 7.56 | 4.41
6 | CCC(=O)C(C[C@H](C)N(C)C)(c1ccccc1)c1ccccc1 [d-methadone] | 70.3 | 53.0 | 61.6 | – | – | – | – | – | – | – | – | – | – | – | –
7 | Levorphanol Tartrate | – | – | – | – | – | −1.09 | −0.98 | 0.75 | −0.78 | – | – | 3.81 | 3.59 | 2.68 | 1.88
8 | CC[C@@H](c1cccc(O)c1)[C@@H](C)CN(C)C [tapentadol hydrochloride, reference compound] | 103.4 | 84.8 | 94.1 | – | – | – | – | – | – | – | – | – | – | – | –
